# The list is not random: actives were taken first. Their share in the collection is about 16%.
# uPA surface inh: cell surface uPA generation inhibition | 330,000 compounds, 0.31% hits | cell surface uPA generation assay, qHTS | AID 540303 | Potency, µM (top dose mostly 38.3 µM), for the others: top-dose activity change, negative = inhibition, most hits filed as inhibitors; active = well fitted inhibition curve with a large enough effect; inconclusive = small, poorly fitted or top-dose-only effect; inactive = no such curve, though single readings can be large or run the other way; tested in mouse RAW 264.7 cells; also: potency is read from the fitted curve at half-maximal effect; % is scaled to controls: 0 for no effect and ±100 for the full control effect; nearly all actives have a fitted effect of over 55% in size
# miR-21 reporter: miR-21 reporter, rising signal | HeLa miR-21 FLuc reporter, luciferase, 48 h | Potency, µM (top dose mostly 38.3 µM), inactives show at the highest dose reporter change, positive = more light | 340,000 tested, under 10 active | AID 2288; active = well fitted rising curve with a large enough effect; inconclusive = small, poorly fitted or top-dose-only effect; inactive = no such curve, though single readings can be large or run the other way;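 note: % of control where 0% means no effect; miR-21 action dims this reporter so a rising signal means less miR-21 action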
#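 HeLa cells stably expressing CMV-driven firefly luciferase with a downstream miR-21 binding sequence, endogenously expressing miR-21, were treated with titrations (up to about 40uM final) for 48 hours at 37 degree Celsius. Luciferase luminescence was read after lysis.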
# TDP1 cell CPT: growth inhibition of DT40 Tdp1-/-;hTDP1 cells with camptothecin (screen for TDP1 inhibitors). 420,000 compounds, 12% hits. chicken DT40 Tdp1-/-;hTDP1 cells + 20 nM CPT, ATP luminescence, 48 h. Potency, µM (series often up to 46.2 µM), without a hit: at the highest dose activity change, negative = growth inhibition, actives largely listed as inhibitors. AID 686979; also: potency is read from the fitted curve at half-maximal effect; % is scaled to controls: 0 for no effect and ±100 for the full control effect; nearly all actives have a fitted effect of over 55% in size
#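 Cell growth measured by CellTiter-Glo luminescence after a minimum 48 h, 37 C compound exposure with 20 nM CPT in Tdp1-knockout DT40 cells stably expressing hTDP1, seeded 400/well; qHTS titration format.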
# DT40 TDP1 no CPT: qHTS for Inhibitors of human tyrosyl-DNA phosphodiesterase 1 (TDP1): qHTS in cells in absence of CPT. DT40 Tdp1-/- hTDP1 cells, no CPT, ATP luminescence, 48 h. Potency, µM (doses to about 46.2 µM), without a hit: top-dose activity change, negative = growth inhibition, actives largely listed as inhibitors. 420,000 compounds, 15% hits; also: potency is read from the fitted curve at half-maximal effect; % is scaled to controls: 0 for no effect and ±100 for the full control effect; nearly all actives have a fitted effect of over 55% in size
#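 Stably hTDP1-transfected Tdp1-null chicken DT40 cells were treated with library compounds minus camptothecin and grown for at least 48 hr at 37 °C, after which cellular ATP was quantified by luminescence.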
# TDP1 block: TDP1 (human) enzyme inhibition; recombinant TDP1, AlphaScreen DNA substrate cleavage; Potency, µM (doses to about 130 µM), without a hit: at the highest dose activity change, negative = inhibition, hits mostly inhibitors; 350,000 compounds, 0.28% hits; Q9NUW8; also: potency is read from the fitted curve at half-maximal effect; % is scaled to controls: 0 for no effect and ±100 for the full control effect; nearly all actives have a fitted effect of over 40% in size
#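 Steps: enzyme plus compound, 15 min RT; add biotin/phosphotyrosine-FITC oligonucleotide (15 nM final), react 5 min; add donor/acceptor beads (10 ug/ml final), 10 min; read AlphaScreen. Tdp1 at 1 nM final.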
# An asterisk follows results filed as active; ? = inconclusive; . = no result. Unless noted, calls follow the shape of the dose curve; as a rule, active = well fitted curve in the direction sought with a large enough effect; inconclusive = small, poorly fitted or top-dose-only effect, or another doubt; inactive = no such curve, though single readings can be large; an effect the other way counts as inactive or inconclusive.
# Short forms – A = uPA surface inh; B = miR-21 reporter; C = TDP1 cell CPT; D = DT40 TDP1 no CPT; E = TDP1 block
Cc1ccc(S(=O)(=O)NC(=O)NC(C)(C)C)cc1
  A = -0.1% | B = -5.9% | C = 4.5% | D = -26.2% | E = 0.0%
COc1cc2[nH]c3c(c2cc1OC)CCN1CCCC[C@@H]31
  A = 1.2% | B = . | C = 14.0% | D = -4.9% | E = .
CC(=O)Nc1cc(C(=O)N2CCOCC2)ccc1S(=O)(=O)c1ccc(C)cc1
  A = 1.6% | B = 0.9% | C = -10.6% | D = 2.5% | E = 3.1%
CC(=O)Nc1cc(-c2ccc(C(=O)N3CCOCC3)cc2)cn2c(-c3ccc(F)c(Cl)c3)cnc12
  A = . | B = . | C = 23.1µM* | D = 16.4µM* | E = .
CC(=O)Nc1cc(-c2ccc(C(=O)N3CCOCC3)cc2)cn2c(-c3ccc(S(C)(=O)=O)cc3)cnc12
  A = . | B = . | C = 16.4µM* | D = 13µM* | E = .
CC(=O)N1CCCc2cc(S(=O)(=O)N3CCC(N(C)C(C)C)CC3)ccc21
  A = . | B = 1.5% | C = -1.5% | D = 0.0% | E = 4.4%
CC(=O)N1CCCc2cc(S(=O)(=O)N3CCC(C(=O)N(Cc4ccccc4)C(C)C)CC3)ccc21
  A = . | B = 3.0% | C = 23.1µM* | D = ? | E = 7.7%
CC(=O)N1CCCc2cc(S(=O)(=O)N3CCC(C(=O)N(C)C4CCCCC4)CC3)ccc21
  A = . | B = 0.7% | C = ? | D = 23.1µM* | E = 7.7%
CCOc1ccc(N(C)C(=O)c2oc(=O)c3ccccc3c2-c2ccccc2)cc1
  A = . | B = 20.2% | C = 18.4µM* | D = 14.6µM* | E = 6.9%
Cc1ccc(-c2c(C(=O)NCc3ccccc3)oc(=O)c3ccccc23)cc1
  A = 1.0% | B = -4.8% | C = ? | D = ? | E = 9.3%
Cc1ccc(-c2c(C(=O)NCCc3ccccc3)oc(=O)c3ccccc23)cc1
  A = . | B = 5.0% | C = 14.6µM* | D = ? | E = -2.3%
COc1cc(C2CC(=O)Nc3c2c(C)nn3-c2nncc(-c3ccc(C)cc3)n2)cc(OC)c1OC (stereo not drawn)
  A = . | B = -13.0% | C = -16.3% | D = -13.6% | E = 8.6%
COc1ccc(C2C3=C(CC(C)(C)CC3=O)Nc3cc4c(cc32)OCO4)cc1 (stereo not drawn)
  A = -0.9% | B = -7.4% | C = -0.1% | D = -9.5% | E = 7.1%
COc1ccc(OC)c(C2C3=C(COC3=O)Nc3cc4c(cc32)OCO4)c1 (stereo not drawn)
  A = -9.4% | B = 21.4% | C = 0.164µM* | D = 0.146µM* | E = 2.0%
CC1CCCN(C(=O)c2cccc(S(=O)(=O)N3CCCC3)c2)C1 (stereo not drawn)
  A = -25.6% | B = . | C = -19.5% | D = -9.7% | E = 0.4%
COc1ccc(C2=Nc3ccccc3N(C(=O)Cc3cc(OC)cc(OC)c3)C2C(=O)NC(C)(C)C)cc1 (stereo not drawn)
  A = . | B = . | C = 18.4µM* | D = -85.3% | E = .
COc1ccc(C2=Nc3ccccc3N(C(=O)c3ccc4ncccc4c3)C2C(=O)NC2CCCC2)cc1 (stereo not drawn)
  A = . | B = . | C = 8.2µM* | D = 9.2µM* | E = .
COc1ccc(C2=Nc3ccccc3N(C(=O)c3ccc4ncccc4c3)C2C(=O)NC(C)(C)C)cc1 (stereo not drawn)
  A = . | B = . | C = 13µM* | D = 23.1µM* | E = .
COc1ccc(C2=Nc3ccccc3N(C(=O)Cc3cc(OC)cc(OC)c3)C2C(=O)NC(C)C)cc1 (stereo not drawn)
  A = . | B = . | C = ? | D = -21.1% | E = .
Cc1cccc(OCC(O)Cn2c(NCCCOC(C)C)nc3c2c(=O)[nH]c(=O)n3C)c1 (stereo not drawn)
  A = 1.2% | B = -0.5% | C = ? | D = ? | E = 2.8%
O=S(=O)(c1ccc(F)cc1)N(Cc1nc(-c2ccc(Cl)cc2)no1)C1CCCCC1
  A = . | B = 0.8% | C = ? | D = 25.9µM* | E = -2.5%
Cc1ccc(-c2noc(CN(C3CCCCC3)S(=O)(=O)c3ccc(Cl)cc3)n2)cc1
  A = . | B = -0.4% | C = 25.9µM* | D = ? | E = 1.2%
CN(Cc1nc(-c2ccncc2)no1)S(=O)(=O)c1ccc(Cl)cc1
  A = -1.0% | B = 10.0% | C = ? | D = ? | E = 8.7%
CNC(=O)CN(C1CCCCC1)S(=O)(=O)c1ccc(F)cc1
  A = 1.4% | B = 0.3% | C = -6.9% | D = -7.0% | E = -2.2%
COc1ccc(S(=O)(=O)N(Cc2nc(-c3ccc(Cl)cc3)no2)C2CCCCC2)cc1
  A = . | B = 8.8% | C = 20.6µM* | D = 20.6µM* | E = 2.5%

# One compound at a time, as listed above. Values in the order: uPA surface inh | miR-21 reporter | TDP1 cell CPT | DT40 TDP1 no CPT | TDP1 block
# Listed for COc1ccc(S(=O)(=O)N(Cc2nc(-c3ccc(Cl)cc3)no2)C2CCCCC2)cc1 = . | 8.8% | 20.6µM* | 20.6µM* | 2.5%
# Listed for COc1ccc(C2C3=C(CC(C)(C)CC3=O)Nc3cc4c(cc32)OCO4)cc1 (stereo not drawn) = -0.9% | -7.4% | -0.1% | -9.5% | 7.1%
# Listed for CC(=O)N1CCCc2cc(S(=O)(=O)N3CCC(C(=O)N(C)C4CCCCC4)CC3)ccc21 = . | 0.7% | ? | 23.1µM* | 7.7%

# Screening results as filed in PubChem.
